Earlier results, collected in publication PMC4871753.

The chains behind the UniProt entries cited, without tags or fusion partners. Residues count along the entry.
UniProt P19235, 25-250: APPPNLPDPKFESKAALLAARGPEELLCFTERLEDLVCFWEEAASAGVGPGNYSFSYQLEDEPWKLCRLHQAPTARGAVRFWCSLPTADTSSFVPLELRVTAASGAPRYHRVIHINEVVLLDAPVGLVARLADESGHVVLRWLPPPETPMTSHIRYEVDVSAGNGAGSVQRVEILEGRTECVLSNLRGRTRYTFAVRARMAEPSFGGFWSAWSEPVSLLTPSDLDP

Target: EpoR (Homo sapiens) (UniProt P19235)

**Q.** Which Kd does the source give for Epo-NLuc (from UniProt P01588) here?
**A.** 0.59 nM
